Reference: patent US5242900A, “Treatment of diabetes using phosphorylated insulin” (priority 1991, dated 1993)

What was measured:
normal dog = details: in vivo
pancreatectomized dogs = test: Subcutaneous studies in pancreatectomized (diabetic) dogs: plasma glucose; details: dog, in vivo, sc

Substance: phosphorylated insulin: porcine insulin chemically phosphorylated with POCl3/phosphoric acid in DMF; 3 or 5 negatively charged adducts; about 5-10% unmodified
- insulin concentrations in the periphery relative to regular insulin (normal dog): almost two-fold higher
- plasma glucose at greater than 4-fold larger doses (pancreatectomized dogs): delayed tendency to levels beneath the normal range
